Measurements from paper PMC7479175, “Selection of Potent Inhibitors of Soluble Epoxide Hydrolase for Usage in Veterinary Medicine” (Frontiers in Veterinary Science, 2020).

Protein sequences, listed by entry. Tags and fused reporters are not part of them. Residues count along the entry.
UniProt A0ABI7ZL20, entry or part of it: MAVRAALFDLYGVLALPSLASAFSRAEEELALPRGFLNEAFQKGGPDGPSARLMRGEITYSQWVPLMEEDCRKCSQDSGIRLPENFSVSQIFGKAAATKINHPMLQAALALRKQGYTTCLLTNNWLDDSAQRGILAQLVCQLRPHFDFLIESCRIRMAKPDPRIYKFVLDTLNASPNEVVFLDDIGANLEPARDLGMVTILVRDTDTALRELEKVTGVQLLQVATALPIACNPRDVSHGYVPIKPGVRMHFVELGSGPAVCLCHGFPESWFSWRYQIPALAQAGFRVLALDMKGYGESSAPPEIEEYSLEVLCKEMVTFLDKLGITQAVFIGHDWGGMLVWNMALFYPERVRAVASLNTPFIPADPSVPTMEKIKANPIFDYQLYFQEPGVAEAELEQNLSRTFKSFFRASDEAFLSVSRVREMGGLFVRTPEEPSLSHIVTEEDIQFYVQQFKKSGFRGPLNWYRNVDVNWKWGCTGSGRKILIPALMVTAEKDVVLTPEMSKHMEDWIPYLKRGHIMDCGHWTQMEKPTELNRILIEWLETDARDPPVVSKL
UniProt A0A8I3NJL8, 1-556: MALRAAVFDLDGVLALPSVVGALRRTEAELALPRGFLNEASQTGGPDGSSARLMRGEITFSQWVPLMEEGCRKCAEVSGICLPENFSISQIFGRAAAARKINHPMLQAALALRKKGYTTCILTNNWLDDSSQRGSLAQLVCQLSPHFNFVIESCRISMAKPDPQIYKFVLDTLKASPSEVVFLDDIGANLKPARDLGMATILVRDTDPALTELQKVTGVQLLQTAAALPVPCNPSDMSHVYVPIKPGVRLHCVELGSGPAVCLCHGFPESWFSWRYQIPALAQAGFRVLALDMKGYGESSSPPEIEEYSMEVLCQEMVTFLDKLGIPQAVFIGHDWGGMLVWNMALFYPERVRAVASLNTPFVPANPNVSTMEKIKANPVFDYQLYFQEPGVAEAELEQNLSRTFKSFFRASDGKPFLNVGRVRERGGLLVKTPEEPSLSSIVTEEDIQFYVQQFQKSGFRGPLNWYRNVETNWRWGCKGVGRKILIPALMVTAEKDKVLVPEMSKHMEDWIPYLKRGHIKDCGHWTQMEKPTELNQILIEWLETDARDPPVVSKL
UniProt F7C407, entry or part of it: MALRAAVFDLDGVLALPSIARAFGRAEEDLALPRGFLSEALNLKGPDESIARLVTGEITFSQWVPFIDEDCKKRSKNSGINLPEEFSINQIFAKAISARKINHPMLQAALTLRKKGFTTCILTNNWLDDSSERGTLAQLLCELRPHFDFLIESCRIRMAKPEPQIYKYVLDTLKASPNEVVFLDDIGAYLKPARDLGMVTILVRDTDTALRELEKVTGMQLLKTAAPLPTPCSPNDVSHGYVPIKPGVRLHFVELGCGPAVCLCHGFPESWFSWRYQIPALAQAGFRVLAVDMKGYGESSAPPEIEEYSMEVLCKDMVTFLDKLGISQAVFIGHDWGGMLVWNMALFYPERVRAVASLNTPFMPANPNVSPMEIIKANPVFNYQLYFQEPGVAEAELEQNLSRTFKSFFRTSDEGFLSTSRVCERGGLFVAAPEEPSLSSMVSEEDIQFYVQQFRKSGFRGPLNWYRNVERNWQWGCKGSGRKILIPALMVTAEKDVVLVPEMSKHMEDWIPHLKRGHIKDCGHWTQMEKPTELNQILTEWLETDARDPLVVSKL
UniProt Q6Q2C2, whole entry: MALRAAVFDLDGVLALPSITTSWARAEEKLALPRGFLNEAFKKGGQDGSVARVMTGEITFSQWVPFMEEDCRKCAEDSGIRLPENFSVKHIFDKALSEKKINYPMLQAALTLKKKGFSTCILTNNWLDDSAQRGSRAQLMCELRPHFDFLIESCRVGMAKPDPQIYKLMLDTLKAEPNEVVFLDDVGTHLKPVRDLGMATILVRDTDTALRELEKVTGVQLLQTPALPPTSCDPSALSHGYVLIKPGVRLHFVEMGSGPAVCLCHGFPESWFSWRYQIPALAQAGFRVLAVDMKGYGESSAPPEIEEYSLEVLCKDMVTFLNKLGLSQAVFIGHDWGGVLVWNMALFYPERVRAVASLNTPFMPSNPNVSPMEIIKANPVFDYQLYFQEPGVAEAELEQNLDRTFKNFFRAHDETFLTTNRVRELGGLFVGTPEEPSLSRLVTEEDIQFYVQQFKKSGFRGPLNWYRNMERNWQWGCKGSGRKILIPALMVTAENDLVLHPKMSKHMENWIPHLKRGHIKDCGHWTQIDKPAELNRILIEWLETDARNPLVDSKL

How the values were obtained:
[1] = target: T1, Cat sEH (Felis catus, UniProt A0ABI7ZL20); assay: Secondary screen (kinetic mode), PHOME substrate; format: biochemical; settings: [I] = 100 nM, secondary kinetic mode screening
[2] = target: T2, Dog sEH (Canis lupus familiaris, UniProt A0A8I3NJL8); assay: Secondary screen (kinetic mode), PHOME substrate; format: biochemical; settings: [I] = 100 nM, secondary kinetic mode screening
[3] = target: T1, Cat sEH; assay: sEH inhibition potency (IC50), fluorescent assay with CMNPC, partially purified enzyme; format: biochemical; settings: read-out: Cat sEH IC50; CMNPC ([S]final = 5 μM) as substrate; average ± standard deviation (n = 3)
[4] = target: T3, Horse sEH (Equus caballus, UniProt F7C407); assay: Secondary screen (kinetic mode), PHOME substrate; format: biochemical; settings: [I] = 100 nM, secondary kinetic mode screening
[5] = Solubility of inhibitors in different solvents; format: physicochemical; settings: for solubility at 24 h: thermodynamic from solid, 40°C
Method: The un-dissolved compounds were filtered through a 0.22 μm centrifuge filter at 30 or 40°C and the supernatant further diluted 10-fold with methanol. The concentration of t-TUCB in the samples was determined by LC/MS/MS analysis as previously described ([15]).

[6] = target: T1, Cat sEH; assay: Primary screen (end point) of the sEH inhibitor library, PHOME substrate; format: biochemical; settings: [I] = 100 nM, primary end-point screening
Method: (§1) Primary screening of the library was performed with an inhibitor concentration of 100 nM using PHOME as substrate ([22]). […] The plates were then mixed and incubated at 30°C for 5 min. Across each plate, 30 μL of the working substrate solution (270 μL of 5 mM PHOME solution in DMSO diluted with 3,680 μL of buffer) were added quickly to yield [S]final: 50 μM. Each plate was further incubated at room temperature (horse sEH: 60 min; cat sEH: 45 min; dog sEH: 30 min).

[7] = target: T2, Dog sEH; assay: as above; format: biochemical; settings: [I] = 100 nM, primary end-point screening
Method: as §1

[8] = target: T3, Horse sEH; assay: as above; format: biochemical; settings: [I] = 100 nM, primary end-point screening
Method: as §1

[9] = target: T4, sEH activity from liver cytosol of Pig (Sus scrofa, UniProt Q6Q2C2); assay: sEH inhibition potency (IC50), radioactive assay with [3H]t-DPPO, liver cytosol; format: biochemical
T4 construct: The radioactive fluorescent assay was used with the liver crude extracts; from tissue; host or cells: pig liver cytosol (100,000 g supernatant)
Description: Fresh liver tissues samples (5–30 g) were collected promptly after death from healthy adult cat, dog and horse euthanized for reasons unrelated to this study, and whose bodies were given to science by the owners in line with federal regulations and protocol approved by the Institutional Animal Care and Use Committee at University of California Davis. Similarly, tissues from the other animals tested herein were collected from healthy animals immediately after being slaughter at the university abattoir. Because no animals were directly used or killed for this study, sample collections were exempted from approval by the Institutional Animal Care and Use Committee of the University of California Davis and Michigan State University. […] The tissues were flash-frozen in liquid nitrogen following removal, and then kept at −80°C until used. After thawing on ice, the samples were homogenized in chilled sodium phosphate buffer (20 mM pH 7.4) containing 5 mM EDTA, 1 mM DTT and 1 mM PMSF (tissue weight:buffer volume ratio 1:4). These homogenates were centrifuged at 100,000 g for 60 min at 4°C. […]
The IC50 values reported herein were determined using either a fluorescent based assay (CMNPC as substrate) for purified enzyme preparations or a radioactive based assay ([^3H]t-DPPO as substrate) for crude enzyme preparations ([20]). […]

## O=C(Nc1ccc(OC(F)(F)F)cc1)N[C@H]1CC[C@H](Oc2ccc(C(=O)O)cc2)CC1 [1,728, trans-4-{4-[3-(4-trifluoromethoxy-phenyl)-ureido]-cyclohexyloxy}-benzoic acid]
[1]
  Cat sEH Inhibition (%) S.: 100%
[2]
  Dog sEH Inhibition (%) S.: 81%
[3]
  IC50: 0.4 ± 0.01 nM
[4]
  Horse sEH Inhibition (%) S.: 89%
[5]; PEG300, 30°C
  Solubility: 222000 µM
[5]; Phosphate Buffer (0.1 M pH 7.4), 30°C
  Solubility: 0.005 mg/mL
[5]; aqueous buffer, Phosphate Buffer (0.1 M pH 7.4), read-out: Solubility
  solubility at 24 h: 22 µM
[5]; oil or lipid, Oleic rich oil, read-out: Solubility
  solubility at 24 h: 220 µM
[5]; organic solvent or mixture, Carbitol, read-out: Solubility
  solubility at 24 h: 114000 µM
[5]; organic solvent or mixture, Carbitol, read-out: Solubility in mg/mL
  solubility at 24 h: 50 mg/mL
[6]
  Cat sEH Inhibition (%) P.: 95%
[7]
  Dog sEH Inhibition (%) P.: 90%
[8]
  Horse sEH Inhibition (%) P.: 107%

## O=C(O)CCCCCCCCCCCNC(=O)NC12CC3CC(CC(C3)C1)C2 [compound 700]
[1]
  Cat sEH Inhibition (%) S.: 99%
[9]
  IC50: 11 nM
[6]
  Cat sEH Inhibition (%) P.: 94%

Where two headings read alike, the source gives them in different places.
